Values of other authors in publication PMC3970923.

Protein sequences, listed by entry. Tags and fused reporters are not part of them. Lines headed by an entry give the natural chain unless they say otherwise; changes in a name come on top. Residues count along the entry.
UniProt Q00560: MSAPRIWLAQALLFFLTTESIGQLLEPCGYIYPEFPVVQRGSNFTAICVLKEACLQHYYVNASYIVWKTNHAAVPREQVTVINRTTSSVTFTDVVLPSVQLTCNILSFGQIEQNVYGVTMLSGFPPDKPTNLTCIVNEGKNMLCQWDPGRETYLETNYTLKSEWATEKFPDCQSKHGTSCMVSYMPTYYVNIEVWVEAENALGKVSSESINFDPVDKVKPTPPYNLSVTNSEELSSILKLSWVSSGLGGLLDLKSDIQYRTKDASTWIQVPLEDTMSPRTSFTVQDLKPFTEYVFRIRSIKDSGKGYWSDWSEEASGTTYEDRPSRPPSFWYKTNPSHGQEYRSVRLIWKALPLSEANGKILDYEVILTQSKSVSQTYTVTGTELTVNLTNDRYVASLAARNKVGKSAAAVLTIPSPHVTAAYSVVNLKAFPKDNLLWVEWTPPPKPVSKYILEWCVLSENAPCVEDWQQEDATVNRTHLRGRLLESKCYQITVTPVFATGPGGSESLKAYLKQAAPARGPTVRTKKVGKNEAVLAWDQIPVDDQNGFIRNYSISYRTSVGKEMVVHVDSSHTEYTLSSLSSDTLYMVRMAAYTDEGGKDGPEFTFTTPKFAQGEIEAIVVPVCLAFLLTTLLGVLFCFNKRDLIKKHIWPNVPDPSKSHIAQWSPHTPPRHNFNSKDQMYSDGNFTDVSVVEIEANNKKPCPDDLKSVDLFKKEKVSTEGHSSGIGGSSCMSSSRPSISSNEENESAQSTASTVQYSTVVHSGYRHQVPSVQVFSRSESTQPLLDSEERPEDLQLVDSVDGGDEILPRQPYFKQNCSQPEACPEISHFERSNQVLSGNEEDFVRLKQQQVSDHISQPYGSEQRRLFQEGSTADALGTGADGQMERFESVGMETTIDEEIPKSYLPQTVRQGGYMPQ
UniProt O35718, 46-142: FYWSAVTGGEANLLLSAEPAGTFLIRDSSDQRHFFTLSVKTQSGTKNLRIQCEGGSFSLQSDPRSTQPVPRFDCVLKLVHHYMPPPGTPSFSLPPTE

Biological target: gp130 (UniProt Q00560)

- Kd: 100 nM
Substance: SOCS3 SH2 (from UniProt O35718)
